Source: patent US20260132129A1

Protein sequences, listed by entry. Tags and fused reporters are not part of them.
UniProt P42336, whole entry H1047R: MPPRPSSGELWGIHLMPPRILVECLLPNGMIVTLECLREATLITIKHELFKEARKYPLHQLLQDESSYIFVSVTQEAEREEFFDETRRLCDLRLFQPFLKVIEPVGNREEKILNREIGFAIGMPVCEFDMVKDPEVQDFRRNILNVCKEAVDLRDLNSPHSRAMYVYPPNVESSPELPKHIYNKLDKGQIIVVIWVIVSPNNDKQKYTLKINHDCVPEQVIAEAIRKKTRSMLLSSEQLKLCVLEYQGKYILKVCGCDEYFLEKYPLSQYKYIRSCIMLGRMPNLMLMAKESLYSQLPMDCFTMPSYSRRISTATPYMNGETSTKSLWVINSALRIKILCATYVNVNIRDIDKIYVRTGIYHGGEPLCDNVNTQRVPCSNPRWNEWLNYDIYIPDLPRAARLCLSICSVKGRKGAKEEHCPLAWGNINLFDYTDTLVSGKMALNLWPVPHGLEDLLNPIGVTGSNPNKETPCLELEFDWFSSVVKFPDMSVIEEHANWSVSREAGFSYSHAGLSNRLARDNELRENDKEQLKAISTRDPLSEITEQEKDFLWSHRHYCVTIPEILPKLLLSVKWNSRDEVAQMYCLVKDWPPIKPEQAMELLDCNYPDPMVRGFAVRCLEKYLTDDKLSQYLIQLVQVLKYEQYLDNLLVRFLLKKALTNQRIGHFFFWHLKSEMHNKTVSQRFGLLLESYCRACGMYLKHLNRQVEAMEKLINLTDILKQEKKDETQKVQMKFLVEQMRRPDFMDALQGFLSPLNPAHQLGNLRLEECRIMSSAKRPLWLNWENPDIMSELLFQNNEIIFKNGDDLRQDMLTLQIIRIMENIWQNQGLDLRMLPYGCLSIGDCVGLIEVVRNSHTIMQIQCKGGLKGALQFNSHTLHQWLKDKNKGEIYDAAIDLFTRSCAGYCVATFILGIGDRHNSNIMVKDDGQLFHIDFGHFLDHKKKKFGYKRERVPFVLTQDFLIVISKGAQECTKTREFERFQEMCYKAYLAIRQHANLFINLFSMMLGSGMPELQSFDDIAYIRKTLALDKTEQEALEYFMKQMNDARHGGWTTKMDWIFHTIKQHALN
UniProt P27986, whole entry partner: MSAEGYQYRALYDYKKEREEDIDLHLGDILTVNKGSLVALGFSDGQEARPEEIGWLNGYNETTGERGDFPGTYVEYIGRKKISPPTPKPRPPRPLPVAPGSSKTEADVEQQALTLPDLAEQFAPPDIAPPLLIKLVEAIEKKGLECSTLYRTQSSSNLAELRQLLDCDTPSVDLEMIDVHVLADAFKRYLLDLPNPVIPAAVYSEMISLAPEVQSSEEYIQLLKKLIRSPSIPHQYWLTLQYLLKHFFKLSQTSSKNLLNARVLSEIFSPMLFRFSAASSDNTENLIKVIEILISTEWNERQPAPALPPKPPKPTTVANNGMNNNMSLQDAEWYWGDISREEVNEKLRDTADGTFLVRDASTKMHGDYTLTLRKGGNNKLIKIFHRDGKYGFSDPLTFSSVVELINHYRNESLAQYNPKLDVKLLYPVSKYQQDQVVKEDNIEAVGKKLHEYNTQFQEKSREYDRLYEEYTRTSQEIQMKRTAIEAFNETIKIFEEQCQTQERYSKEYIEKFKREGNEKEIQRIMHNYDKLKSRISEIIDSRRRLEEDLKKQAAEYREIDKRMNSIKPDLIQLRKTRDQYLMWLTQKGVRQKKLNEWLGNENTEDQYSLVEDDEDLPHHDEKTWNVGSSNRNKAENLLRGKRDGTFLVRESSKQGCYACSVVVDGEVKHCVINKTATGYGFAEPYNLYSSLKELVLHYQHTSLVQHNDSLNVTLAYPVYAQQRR

Molecular target: PI3Kα H1047R (T47D cells) (Homo sapiens, UniProt P42336, H1047R)
Experiment: PI3Kα cellular assay: pAKT HTRF in T47D cells after EGF stimulation
Type: cell-based
Details: for IC50: read-out: T47D pAKT S473 HTRF IC50 (H1047R): Average IC50, T47D cells (PI3Kα H1047R), pAKT S473 HTRF
[1] = selectivity of T47D (H1047R) over SKBR3 (WT) pAKT IC50
[2] = selectivity T47D (H1047R) over SKBR3 (WT), pAKT HTRF
[3] = 1 hr compound, 20 ng/ml EGF 10 min

SMILES | IC50 (EGF stimulation) [nM] | T47D pAKT S473 HTRF IC50 (H1047R): T47D (H1047R) selectivity over SKBR3 (WT) [1] | T47D pAKT S473 HTRF IC50 (H1047R): T47D (H1047R) selectivity over SKBR3 (WT) [2] | IC50 [3] [nM]
Cc1cc([C@@H](C)Nc2ccccc2S(N)(=O)=O)c2nc(-c3cnc4c(c3)c(C)nn4C)c(C)c(=O)n2c1 | 100 to 500 | A (A denotes >20-fold) |  | 
Cc1cc([C@H](C)Nc2ccccc2C(=O)O)c2nc(-c3cnc(C)c(C(F)(F)F)c3)c(C)c(=O)n2c1 | 100 to 500 |  | A (A denotes >20-fold) | 
Cc1cc([C@H](C)Nc2ccccc2C(=O)O)c2nc(-c3ccc4c(c3)c(C)nn4C3CC3)cc(=O)n2c1 | > 2000 | C (C denotes ≤5-fold) |  | 
Cc1cc([C@H](C)Nc2ccc(F)cc2C(=O)O)c2nc(-c3ccnc(C4CC4)c3)c(C)c(=O)n2c1 | < 100 |  | A (A denotes >20-fold) | 
Cc1cc([C@@H](C)Nc2ccccc2C(=O)O)c2nc(-c3ccc4c(n3)c(C)nn4C)cc(=O)n2c1 | > 2000 | C (C denotes ≤5-fold) |  | 
Cc1cc(C(C)Nc2ccccc2C(=O)O)c2nc(-c3cc(F)cc4c3CC[C@H]4O)cc(=O)n2c1 (stereo partly drawn) | 100 to 500 | A (A denotes >20-fold) |  | 
C=CC(=O)Nc1ccc(C(=O)O)c(N[C@@H](C)c2cc(C)cn3c(=O)cc(N4Cc5ccccc5C4)nc23)c1 | > 2000 | C (C denotes ≤5-fold) |  | 
Cc1cc(C(C)Nc2ccccc2C(=O)O)c2nc(-c3cccc(C(F)F)c3)c(C)c(=O)n2c1 (stereo not drawn) | 100 to 500 |  | A (A denotes >20-fold) | 
Cc1cc([C@H](C)Nc2ccccc2C(=O)O)c2nc(-c3ccc(C4CC4)nc3)c(C)c(=O)n2c1 | 500 to 2000 |  |  | 
Cc1cc([C@@H](C)Nc2ccccc2C(=O)O)c2nc(N3Cc4ccccc4C3)c(C#N)c(=O)n2c1 | < 100 |  | A (A denotes >20-fold) | 
Cc1cc([C@@H](C)Nc2ccccc2C(=O)O)c2nc(-c3cnc(C)c(Cl)c3)c(C3CC3)c(=O)n2c1 | < 100 |  | A (A denotes >20-fold) | 
CC(=O)N1CCN(Cc2ccc(-c3nc4c(C(C)Nc5ccccc5C(=O)O)cc(C)cn4c(=O)c3C)cc2F)CC1 (stereo not drawn) | 100 to 500 |  | A (A denotes >20-fold) | 
Cc1cc([C@@H](C)Nc2ccc(C(F)(F)F)nc2C(=O)O)c2nc(-c3cccc(F)c3)c(C)c(=O)n2c1 | > 2000 |  | C (C denotes ≤5-fold) | 
Cc1cc(C(C)Nc2ccccc2C(=O)O)c2nc(-c3ccc4c(c3)c(N)nn4C3CC3)cc(=O)n2c1 (stereo not drawn) [Compound 870] | 100 to 500 | A (A denotes >20-fold) |  | 
Cc1cc([C@@H](C)Nc2ccccc2C(=O)O)c2nc(-c3ccc4c(c3)c(N(C)C)nn4C)c(C)c(=O)n2c1 | < 100 | A (A denotes >20-fold) |  | 
Cc1cc([C@@H](C)Nc2ccccc2C(=O)O)c2nc(N3CCN(c4ccncc4)CC3)cc(=O)n2c1 (single isomer, unassigned) |  |  | C (C denotes ≤5-fold) | > 2000
Cc1cc([C@H](C)Nc2c(C(=O)O)cnn2C)c2nc(N3CCOCC3)cc(=O)n2c1 |  |  | C (C denotes ≤5-fold) | > 2000
Cc1cc(C(C)Nc2ccccc2C(C)(O)C(F)(F)F)c2nc(-c3ccc(F)cc3)c(C)c(=O)n2c1 (stereo not drawn) | 500 to 2000 |  |  | 
Cc1cc([C@H](C)Nc2ccccc2C(N)=O)c2nc(-c3ccc4c(c3)c(C)nn4C3CC3)c(C)c(=O)n2c1 | 100 to 500 | A (A denotes >20-fold) |  | 
Cc1cc([C@H](C)Nc2ccccc2C(=O)O)c2nc(-c3ccc(Cl)cc3F)c(C)c(=O)n2c1 | > 2000 | C (C denotes ≤5-fold) |  | 
Cc1cc([C@H](C)Nc2ccccc2C(=O)O)c2nc(-c3ccc(Cl)cc3)c(C)c(=O)n2c1 | 500 to 2000 |  |  | 

Where two headings read alike, the source gives them in different places.
